This note sets out measurements from ChEMBL document CHEMBL1148282, “A novel series of piperidin-4-yl-1,3-dihydroindol-2-ones as agonist and antagonist ligands at the nociceptin receptor” (2004).

Assay [1] addresses T1, Nociceptin receptor (Homo sapiens, UniProt P41146). In words: Binding affinity against human Nociceptin receptor on CHO cell membranes by [3H]N/OFQ displacement.
Assay [2] addresses Delta-type opioid receptor (Homo sapiens, UniProt P41143). In words: Binding affinity against human opioid receptor delta 1 transfected on CHO cells was determined using [3H]Cl-DPDPE.
A further assay has as its target Mu-type opioid receptor (Homo sapiens, UniProt P35372). In words: Binding affinity against human Opioid receptor mu 1 on CHO cell membranes was determined by [3H]DAMGO displacement.
Assay [3] addresses T1, Nociceptin receptor. In words: Concentration required for stimulation of [35S]GTP-gamma-S, binding to human Nociceptin receptor in cell membranes. Background: GTPγS is a poorly hydrolysed GTP analogue; its binding reports G protein activation.
Assay [4] addresses Kappa-type opioid receptor (Homo sapiens, UniProt P41145). In words: Binding affinity against human Opioid receptor kappa 1 on CHO cell membranes by [3H]U-69593 displacement.

For orientation: Ki means the equilibrium dissociation constant of an inhibitor or competing ligand from its target. A low value points to a stronger hold on the target. For the compound `O=C1Cc2ccccc2N1C1CCN(C(C2CCCCC2)C2CCCCC2)CC1`, on Nociceptin receptor [1], the Ki was more than 10000 nM.

By EC50 is commonly meant the midpoint of the concentration-response curve. High values mean lower potency in that assay, low ones higher potency in that assay. With `O=C1Cc2ccccc2N1C1CCN(C[C@H]2CC3CCC2C3)CC1` (some centres not stated), the inhibition constant (Ki) in assay [2] is more than 10000 nM; on Mu-type opioid receptor it was 115 nM; on Nociceptin receptor [1], 22 nM; in assay [4], 372 nM. In addition, at Nociceptin receptor [3], the EC50 was more than 10000 nM.

Regarding `O=C1Cc2ccccc2N1C1CCN(C[C@@H]2CC3CCC2C3)CC1` (some centres not stated), the inhibitory constant (Ki) in assay [2] was more than 10000 nM; at Mu-type opioid receptor, 118 nM; at Nociceptin receptor [1], 27.9 nM; in assay [4] it was 318 nM. Also, the EC50 at Nociceptin receptor [3] was more than 10000 nM.

For the compound `CC(c1ccc(C2CCCCC2)cc1)N1CCC(N2C(=O)Cc3ccccc32)CC1` (configuration not stated), the EC50 at Nociceptin receptor [3] is more than 10000 nM.
